This note sets out measurements from US6825390B1, “Stabilization and use of propargyl bromide” (priority 2002, dated 2004).

The data set is described as follows: Sensitivity to detonative shock confined in a heavy steel tube, pentolite booster, witness plate (Example 10).

As for `C#CCBr`, for the setting “detonative shock, confined in heavy steel tube, pentolite booster initiated by blasting cap”, the “Observations: Witness Plate” value was “No damage”. Besides, under “positive if a hole is punched through the witness plate and/or the steel cylinder is fragmented entirely”, the Results entry is “no”.
